The list shows a part of the results, in another mix than the full data. Some results for these compounds are left out of this collection, so the calls shown say nothing about other tests. Calls of active or inactive are those of the source.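 The calls were made as follows: active = inhibition above the screen mean inhibition plus 3 SD, computed separately per campaign (cut at about 18% in these data); inactive = the rest.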

The assay deals with Fam108B (ABHD17B) serine hydrolase [Mus musculus]. Put plainly: inhibition of Fam108B (ABHD17B) hydrolase – biochemical, fluorescence polarization, counter-screen for RBBP9 inhibitor project, primary screen (AID 1947).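 Also: inhibitors lower polarization as less probe binds the enzyme.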 As to conditions: recombinant Fam108B, FP-Rh probe fluorescence polarization; at 9.51 µM; stronger effect = higher value.
As a reminder, the inhibition is the change of the read-out against control, counted positive when it falls. For the compound `O=C(NCC1(N2CCCCC2)CCCCC1)c1cc(F)c(F)cc1Cl`, the inhibition was inactive: 1.97%. With `C=CCN1CCN(CCOC(=O)C(O)(c2ccccc2)c2ccccc2)CC1` the figure was inactive: 0.67%. Take `COc1ccc(C(=O)NCC2(N(C)C)CCCCC2)cc1`: the inhibition is inactive: -0.57%. With `O=C(NCC1(N2CCCCC2)CCCCC1)c1cccc(Br)c1` the figure was inactive: -2.61%; with `CCN1CCCC(OC(=O)C2(O)c3ccccc3C=Cc3ccccc32)C1` (centres undefined), inactive: 0.92%. With `Cc1cc(C(=O)NCC2(N3CCCCC3)CCCCC2)ccc1[N+](=O)[O-]` the figure was inactive: 5.13%; with `CN(C)c1ccc(C(=O)NCC2(N(C)C)CCCCC2)cc1`, inactive: 2.82%.

For the compound `CN(C)C1CCCC1OC(=O)C(O)(c1ccccc1)c1ccccc1` (centres undefined), the inhibition is inactive: 0.27%. As for `Cc1ccccc1C(=O)NCC1(N2CCCCC2)CCCCC1`, the inhibition is inactive: 1.27%.

With `COc1cc(SC)ccc1C(=O)NCC1(N(C)C)CCCCC1`, the inhibition was inactive: 2.09%. With `CCN(CC)CC(C)C(C)OC(=O)C(O)(c1ccccc1)c1ccccc1` (centres undefined) the figure was inactive: -1.52%; with `CC(C)N1C(=O)CC2(CCN(CCOC(=O)C(O)(c3ccccc3)c3ccccc3)CC2)C1=O`, inactive: 4.24%.

`Cc1ccc(C(=O)NCC2(N3CCCCC3)CCCCC2)cc1`: the inhibition was inactive: -1.33%.

For the compound `O=C(NCC1(N2CCCCC2)CCCCC1)c1cc([N+](=O)[O-])ccc1Cl`, the inhibition is inactive: 2.41%. With `CN1[C@@H]2CC[C@H]1CC(OC(=O)C(O)(c1ccccc1)c1ccccc1)C2` (some centres undefined) the figure was inactive: 3.11%. With `COc1ccc(Br)c(C(=O)NCC2(N3CCCCC3)CCCCC2)c1` the figure was inactive: 5%; with `CC(C)Oc1ccc(C(=O)NCC2(N(C)C)CCCCC2)cc1`, inactive: -0.78%; with `CN(C)c1cccc(C(=O)NCC2(N(C)C)CCCCC2)c1`, inactive: 8.16%. With `O=C(OC1CN2CCC1CC2)C(CO)(c1ccccc1)c1ccccc1` (centres undefined) the figure was inactive: 1.57%; with `COc1ccc(Cl)cc1C(=O)NCC1(N(C)C)CCCCC1`, inactive: 4.56%; with `COc1cccc(C(=O)NCC2(N3CCCCC3)CCCCC2)c1`, inactive: 2.43%. Consider `O=C(NCC1(N2CCCCC2)CCCCC1)c1cccc(Cl)c1`, for which the inhibition is inactive: -3.73%. With `CN(C)C1(CNC(=O)c2ccc(Br)cc2)CCCCC1` the figure was inactive: -2.83%; with `COc1cc(C(=O)NCC2(N(C)C)CCCCC2)c([N+](=O)[O-])cc1OC`, inactive: -2.38%.

The values above are taken from PubChem BioAssay AID1947 (The Scripps Research Institute Molecular Screening Center, 2009).
